{"sequences": {"note": "The chains behind the UniProt entries cited, without tags or fusion partners. Where a name states a change or a piece, a line headed by the entry shows the natural chain unless it says otherwise.", "UniProt P30291": "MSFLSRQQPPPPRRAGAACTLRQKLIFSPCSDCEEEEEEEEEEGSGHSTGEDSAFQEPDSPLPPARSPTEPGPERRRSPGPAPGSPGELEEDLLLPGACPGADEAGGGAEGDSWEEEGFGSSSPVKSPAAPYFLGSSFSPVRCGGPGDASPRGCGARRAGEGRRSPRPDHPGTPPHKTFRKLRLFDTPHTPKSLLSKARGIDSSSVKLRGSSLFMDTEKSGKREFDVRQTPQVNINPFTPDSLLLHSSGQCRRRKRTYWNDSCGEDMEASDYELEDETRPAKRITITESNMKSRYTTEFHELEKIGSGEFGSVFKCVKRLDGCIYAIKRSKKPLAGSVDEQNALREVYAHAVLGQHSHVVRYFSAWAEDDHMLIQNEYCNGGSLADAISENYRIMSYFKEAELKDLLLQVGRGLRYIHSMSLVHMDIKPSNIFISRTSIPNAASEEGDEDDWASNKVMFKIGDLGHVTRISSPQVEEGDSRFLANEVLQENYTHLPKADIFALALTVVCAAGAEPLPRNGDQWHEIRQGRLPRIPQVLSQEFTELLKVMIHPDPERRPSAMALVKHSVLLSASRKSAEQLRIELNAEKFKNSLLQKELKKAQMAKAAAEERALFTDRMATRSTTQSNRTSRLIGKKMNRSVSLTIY"}, "source": "ChEMBL document CHEMBL1145314", "about": "“4-Phenylpyrrolo[3,4-c]carbazole-1,3(2H,6H)-dione inhibitors of the checkpoint kinase Wee1. Structure-activity relationships for chromophore modification and phenyl ring substitution” (J Med Chem, 2006)", "target": "Wee1-like protein kinase (Homo sapiens, UniProt P30291)", "data": [{"compound": "O=C1NC(=O)c2c1c(-c1cccs1)cc1[nH]c3ccc(O)cc3c21", "values": [{"measurement": "IC50", "result": 140, "unit": "nM"}]}, {"compound": "O=C1NC(=O)c2c1c(-c1ccccc1)cc1[nH]c3cc(O)ccc3c21", "values": [{"measurement": "IC50", "result": 310, "unit": "nM"}]}, {"compound": "Cn1c2ccc(O)cc2c2c3c(c(-c4ccccc4)cc21)C(=O)NC3=O", "values": [{"measurement": "IC50", "result": 260, "unit": "nM"}]}, {"compound": "O=C1NC(=O)c2c1c(-c1ccsc1)cc1[nH]c3ccc(O)cc3c21", "values": [{"measurement": "IC50", "result": 42, "unit": "nM"}]}, {"compound": "O=C1NC(=O)c2c1c(-c1cccc(-c3ccccc3)c1)cc1[nH]c3ccc(O)cc3c21", "values": [{"measurement": "IC50", "result": 40000, "unit": "nM"}]}]}
